Results as given in paper PMC11181336, “Discovery of ITI-333, a Novel Orally Bioavailable Molecule Targeting Multiple Receptors for the Treatment of Pain and Other Disorders” (Journal of Medicinal Chemistry, 2024).

How the values were obtained:
human recombinant MOR = human recombinant MOR (Homo sapiens, UniProt P35372); test: μ-Opioid receptor binding, [3H]DAMGO displacement; settings: read-out: Mu Ki
[1] = biological target: nociception opioid receptors (Homo sapiens, UniProt P41146); test: Broad screen binding, nociception opioid receptor
κ opioid receptors = κ opioid receptors (Homo sapiens, UniProt P41145); test: Broad screen binding, κ opioid receptor
δ opioid receptors = δ opioid receptors (Homo sapiens, UniProt P41143); test: Broad screen binding, δ opioid receptor
male CD-1 mice = test: Tail flick (TF) assay, acute nociception; format: in vivo

For `O=C1CN2c3c(cccc3[C@@H]3CN(CCCOc4cccc5cccnc45)CC[C@@H]32)N1`, the Ki (human recombinant MOR) was 11 nM.

`O=C1CN2c3c(cccc3[C@@H]3CN(CCCNc4ccc(F)cc4)CC[C@@H]32)N1` gave a Ki (human recombinant MOR) of 10.8 nM.

For `O=C1CN2c3c(cccc3[C@@H]3CN(CCCc4noc5cc(F)ccc45)CC[C@@H]32)N1` [compound 26, (6bR,10aS)-8-(3-(6-Fluorobenzo[d]isoxazol-3-yl)propyl)-6b,7,8,9,10,10a-hexahydro-1H-pyrido[3′,4′:4,5]-pyrrolo[1,2,3-de]quinoxalin-2(3H)-one], the Ki (human recombinant MOR) was 30 nM.

`N#Cc1ccc(OCCCN2CC[C@H]3[C@@H](C2)c2cccc4c2N3CC(=O)N4)cc1` showed a Ki (human recombinant MOR) of 15 nM.

In the case of `O=C1CN2c3c(cccc3[C@@H]3CN(CCCSc4ccc(F)cc4)CC[C@@H]32)N1`, the Ki (human recombinant MOR) is reported as 12.9 nM.

In the case of `O=C1CN2c3c(cccc3[C@@H]3CN(CCCOc4ccc(F)cc4)CC[C@@H]32)N1` [compound 5, (6bR,10aS)-8-(3-(4-Fluorophenoxy)propyl)-6b,7,8,9,10,10a-hexahydro-1H-pyrido[3′,4′:4,5]pyrrolo[1,2,3-de]quinoxalin-2(3H)-one], the “binding to nociception opioid receptors” value [1] is reported as “no significant binding”, the “binding to κ opioid receptors” value (κ opioid receptors) is reported as “no significant binding” and the “binding to δ opioid receptors” value (δ opioid receptors) is reported as “no significant binding”. The “acute analgesic effects after subchronic treatment” value (male CD-1 mice; ITI-333 0.3 or 3 mg/kg SC once daily for 14 days, acute dose on day 15, vs subchronic vehicle) was “maintained and were only slightly attenuated”, the “latency to respond to a nociceptive stimulus in the TF assay” value (male CD-1 mice; ITI-333 orally alone, 1, 3 or 10 mg/kg, 30 min prior) was “dose-dependently increased” and the “ED50, latency to tail flick pain response” value (male CD-1 mice; acute subcutaneous administration 30 min prior to assay, % MPE) was 0.016 mg/kg. The “analgesic effect after pretreatment with naloxone” value (male CD-1 mice; naloxone 3 mg/kg IP 20 min prior to ITI-333 (PO) or morphine (SC)) was “attenuated” and the “latency to tail flick compared to the vehicle” value (male CD-1 mice; subcutaneous, 30 min prior, ITI-333 0.003-1 mg/kg, morphine 5 mg/kg) was “dose-dependently increased”.

Compound `O=C1CN2c3c(cccc3[C@@H]3CN(CCCOc4ccccc4)CC[C@@H]32)N1` [compound 23, (6bR,10aS)-8-(3-Phenoxypropyl)-6b,7,8,9,10,10a-hexahydro-1H-pyrido[3′,4′:4,5]-pyrrolo[1,2,3-de]quinoxalin-2(3H)-one] has a Ki (human recombinant MOR) of 19.7 nM.

`O=C1CN2c3c(cccc3[C@@H]3CN(CCCc4n[nH]c5cc(F)ccc45)CC[C@@H]32)N1` [compound 24, (6bR,10aS)-8-(3-(6-Fluoro-1H-indazol-3-yl)propyl)-6b,7,8,9,10,10a-hexahydro-1H-pyrido[3′,4′:4,5]pyrrolo-[1,2,3-de]quinoxalin-2(3H)-one] showed a Ki (human recombinant MOR) of 39 nM.
